Laboratory results from US9217007B2, “Platinum anticancer agents” (priority 2011, dated 2015).

Assays:
[1] = tested on: HCT116 colon cancer cell line; assay: Cytotoxicity in colon cancer cell line HCT116 with and without cimetidine; assay type: cell-based; conditions: ratio of IC50 in presence and absence of cimetidine
Protocol: (§1) Platinum uptake and platinum-DNA adduct formation was then measured in these transfected cell lines. In some cases, chemical inhibitors of OCT1 were used. In general, we used disopyramide (150 μM). […] In some cases, cimetidine (3 mM) was used as a general OCT inhibitor. Cytotoxicity of some of the leads was determined in colon cancer cell lines. Described below in some detail are the methods for these studies.
(§2) HEK293 cell lines, stably expressing hOCT1, hOCT2 and hOCT3. The following colon cancer cell lines were also used: HCT116, RKO, DLD, HT29 and SW620 purchased from American Type Tissue Culture collection.
(§3) After overnight incubation, the platinum compound with or without an OCT inhibitor (disopyramide) was then be added to the culture medium to various concentrations. After exposure to the drug for 7 hours, the drug-containing medium was replaced with fresh, drug-free medium and the incubation was continued for 72 hours.

[2] = tested on: HEK-hNET; assay: Toxicity toward HEK cells stably transfected with Norepinephrine Transporter; assay type: cell-based, human; conditions: selectivity HEK-EV vs HEK-hNET
Protocol: The term “resistance factor” is a measure of selectivity conferred upon the platinum-based compound by the inclusion of ligands that promote recognition by NET.
as §3

[3] = tested on: DLD colon cancer cell line; assay: Cytotoxicity in colon cancer cell line DLD with and without cimetidine; assay type: cell-based; conditions: ratio of IC50 in presence and absence of cimetidine
Protocol: as §1, §2, §3

[4] = tested on: SW620 colon cancer cell line; assay: Cytotoxicity in colon cancer cell line SW620 with and without cimetidine; assay type: cell-based; conditions: ratio of IC50 in presence and absence of cimetidine
Protocol: as §1, §2, §3

[5] = tested on: RKO colon cancer cell line; assay: Cytotoxicity in colon cancer cell line RKO with and without cimetidine; assay type: cell-based; conditions: RK0; ratio of IC50 in presence and absence of cimetidine
Protocol: as §1, §2, §3

[6] = tested on: HT29 colon cancer cell line; assay: Cytotoxicity in colon cancer cell line HT29 with and without cimetidine; assay type: cell-based; conditions: ratio of IC50 in presence and absence of cimetidine
Protocol: as §1, §2, §3

## O=C1[O][Pt]2([NH][C@@H]3CCCC[C@H]3[NH]2)[O]C1=O [Oxaliplatin, reference compound]
[1]
  Resistance Factor: 10.8
[2]
  Resistance Factor: 1.7
[3]
  Resistance Factor: 7.02
[4]
  Resistance Factor: 5.71
[5]
  Resistance Factor: 14.3
[6]
  Resistance Factor: 4.63
